Data as given in patent US8623864B2, “Thioridazine and derivatives thereof for reversing anti-microbial drug-resistance” (NOA Sic Aps, priority 2003, dated 2014).

The chains behind the UniProt entries cited, without tags or fusion partners.
UniProt P14416, whole entry: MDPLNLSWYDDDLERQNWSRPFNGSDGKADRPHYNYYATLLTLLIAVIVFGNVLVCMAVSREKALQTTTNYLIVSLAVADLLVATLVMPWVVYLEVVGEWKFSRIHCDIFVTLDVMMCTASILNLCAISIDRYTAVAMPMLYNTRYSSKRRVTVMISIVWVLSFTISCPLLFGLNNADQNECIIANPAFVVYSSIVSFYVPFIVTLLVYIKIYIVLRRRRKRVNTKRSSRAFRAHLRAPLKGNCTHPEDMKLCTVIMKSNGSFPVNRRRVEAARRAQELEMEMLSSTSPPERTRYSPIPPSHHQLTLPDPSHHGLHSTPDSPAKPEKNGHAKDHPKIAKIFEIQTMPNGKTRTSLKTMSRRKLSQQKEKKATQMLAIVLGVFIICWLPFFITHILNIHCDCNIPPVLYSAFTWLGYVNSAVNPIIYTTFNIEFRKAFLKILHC

Columns and labels:
[1] = target: D2-receptors (Homo sapiens, UniProt P14416); settings: earlier reports (Svendsen et al. 1988); cited from earlier work
[2] = tested on: Streptococcus strains; assay: Reversal of resistance towards erythromycin; assay type: cell-based; settings: compared with the other forms of thioridazine

| SMILES | Receptor affinity / blockade [1] | Efficiency in reversing resistance towards erythromycin [2] |
| --- | --- | --- |
| CSc1ccc2c(c1)N(CC[C@H]1CCCCN1C)c1ccccc1S2 [dextrorotatory isomer, (R)-thioridazine] | high affinity for D2-receptors |  |
| CSc1ccc2c(c1)N(CC[C@@H]1CCCCN1C)c1ccccc1S2 [levorotatory enantiomer, (S)-thioridazine] | weaker blockade of dopamine D2-receptors | much more efficient in reversing resistance towards erythromycin |
